Test results: ChEMBL document CHEMBL3600302, “A Ligand-Based Drug Design. Discovery of 4-Trifluoromethyl-7,8-pyranocoumarin as a Selective Inhibitor of Human Cytochrome P450 1A2” (J Med Chem, 2015)

The chains behind the UniProt entries cited, without tags or fusion partners.
UniProt P05177, whole entry: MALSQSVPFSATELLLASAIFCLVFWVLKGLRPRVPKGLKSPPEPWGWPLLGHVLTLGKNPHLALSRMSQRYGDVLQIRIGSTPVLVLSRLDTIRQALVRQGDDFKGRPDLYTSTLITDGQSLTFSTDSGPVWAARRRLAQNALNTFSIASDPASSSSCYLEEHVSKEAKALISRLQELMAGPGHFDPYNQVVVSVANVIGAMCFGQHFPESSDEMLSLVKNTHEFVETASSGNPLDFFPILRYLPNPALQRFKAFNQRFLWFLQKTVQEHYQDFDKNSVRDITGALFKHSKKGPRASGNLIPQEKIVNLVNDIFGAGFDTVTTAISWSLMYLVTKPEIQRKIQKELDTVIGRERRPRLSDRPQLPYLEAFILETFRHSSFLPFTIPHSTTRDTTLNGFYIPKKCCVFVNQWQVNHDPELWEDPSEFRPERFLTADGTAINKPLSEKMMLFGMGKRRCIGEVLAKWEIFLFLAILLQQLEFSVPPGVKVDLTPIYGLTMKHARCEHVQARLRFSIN

Biological target: Cytochrome P450 1A2 (Homo sapiens, UniProt P05177)
Test: Inhibition of human microsomal CYP1A2-dependent methoxyresorufin-O-demethylase activity by spectrofluorimetric analysis in presence of NADPH regenerating solution
How it was run: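 Microsomal P450 (final 5 nM) in 0.1 M potassium phosphate pH 7.6 with MgCl2 at 37 °C. Substrate final 5 µM: ethoxyresorufin for 1A1/1B1, methoxyresorufin for 1A2. Ki was taken as the x-intercept of Dixon plots (1/v0 vs [I]). Mean ± SD of three independent experiments. Selectivity ratios are ratios of these Ki.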

Ki: 58 nM
SMILES: O=c1cc(-c2ccccc2)oc2c3c(ccc12)OCC=C3
